Measured values: ChEMBL document CHEMBL5512619, “Anticancer mechanism of coumarin-based derivatives” (Eur J Med Chem, 2024)

Legend:
Carbonic anhydrase 2 = Carbonic anhydrase 2 (Homo sapiens, UniProt P00918); assay: Binding affinity to human CA2 assessed as inhibition constant incubated for 6 hrs by phenol red dye based stopped flow CO2 hydration assay
Calf thymus DNA = details: Bos taurus

Cc1cc(=O)oc2cc(OCc3cn(CCCCCCCCCCCCOc4ccc5ccc(=O)oc5c4)nn3)ccc12
Ki (Carbonic anhydrase 2): > 10 µM

CC(=O)Nc1nnc(SCC(=O)Nc2ccc3oc(=O)ccc3c2)s1
KSV (Calf thymus DNA): 4.27 10^5/M

O=C(COc1cccc(O)c1)Nc1ccc2oc(=O)ccc2c1
KSV (Calf thymus DNA): 4.27 10^5/M
